{"source": "ChEMBL document CHEMBL1148829", "about": "“Cinnamoyl derivatives of 7alpha-aminomethyl-6,14-endo-ethanotetrahydrothebaine and 7alpha-aminomethyl-6,14-endo-ethanotetrahydrooripavine and related opioid ligands” (2007)", "key": {"Mus musculus [1]": {"species_on_record": "Mus musculus", "test": "Antinociceptive activity in mouse by hot plate assay"}, "Mus musculus [2]": {"species_on_record": "Mus musculus", "test": "Antinociceptive activity in mouse by tail flick assay"}, "Mus musculus [3]": {"species_on_record": "Mus musculus", "test": "Antinociceptive activity in mouse by phenylquinone writhing assay"}}, "data": [{"molecule": "CO[C@@]12CC[C@@]3(C[C@@H]1[C@](C)(O)C(C)(C)C)[C@H]1Cc4ccc(O)c5c4[C@@]3(CCN1CC1CC1)[C@H]2O5", "values": [{"measurement": "ED50", "setting": "Mus musculus [1]", "result": 0.035, "unit": "mg/kg"}, {"measurement": "ED50", "setting": "Mus musculus [2]", "result": 0.4, "unit": "mg/kg"}, {"measurement": "ED50", "setting": "Mus musculus [3]", "result": 0.016, "unit": "mg/kg"}]}]}
